Test [1] relates to bilirubin oxidase (BOD), coated BOD 1 (Reference Example). The procedure:
(§1) The solution was homogeneously added to the above acryloylated BOD solution, and the resulting solution was allowed to react for 60 minutes.
(§2) The Michaelis constants (KM) and the reaction rate constants (kcat) of coated BOD 1, coated BOD 2, and free BOD 1 prepared above were measured under the conditions shown in Table 1 below. […] The amount of protein of each BOD sample was determined by bicinchoninic acid (BCA) colorimetric protein assay from a calibration curve of bovine serum albumin (BSA) used as a standard protein.

Test [2] concerns bilirubin oxidase (BOD), coated BOD 2 (Reference Example). The protocol: as §1, §2
In test [3] the test system is bilirubin oxidase (BOD), free BOD 1 (not coated, stored at 4° C.). Conditions: pH 7.0, 25° C., oxygen saturation. The procedure:
As a control, BOD on which coating was not performed and which was stored at 4° C. for the same period of time as that is necessary for the process of preparing coated BOD 2 (hereinafter referred to as “free BOD 1”) was used.
as §2

In test [4] the test system is bilirubin oxidase (BOD), coated BOD 3 (Example 1, coated at 4° C.). The protocol:
(§3) First, 40 mg of BOD and 1 mg of ethylenediaminetetraacetic acid (EDTA) used as a stabilizer were dissolved in 3.8 mL of a 100 mM boric acid solution (pH 9.3). Subsequently, 6.0 mg of N-acryloxysuccinimide was dissolved in 0.2 mL of DMSO, and the solution was then gradually added to the boric acid buffer. The resulting solution was allowed to react at 4° C. for 10 hours. Subsequently, the resulting acryloylated BOD in which acryloyl groups were introduced was purified using a Sephadex G25 column at 4° C.
(§4) Subsequently, at 4° C., a mixture prepared by mixing acrylamide and N,N′-methylenebisacrylamide in a molar ratio of 10:1 was dissolved in 0.5 mL of deionized water free of oxygen. The solution was homogeneously added to the above acryloylated BOD solution, and the resulting solution was allowed to react for 60 minutes. The reaction was further performed in the presence of nitrogen at 4° C. for 60 minutes. Finally, the coated BOD (hereinafter referred to as “coated BOD 3”) was purified using a Sephadex G75 column.
(§5) The Michaelis constants (KM) and the reaction rate constants (kcat) of coated BOD 3, coated BOD 4, free BOD 2, and free BOD 3 prepared above were measured under the conditions shown in Table 4. […] The amount of protein of each BOD sample was determined by BCA colorimetric protein assay from a calibration curve of BSA used as a standard protein.

In test [5] the test system is bilirubin oxidase (BOD), coated BOD 4 (Example 1, coated at 4° C.). The protocol: as §3, §4, §5
The test system of test [6] is bilirubin oxidase (BOD), free BOD 2 (not coated, stored at 25° C.). Conditions: oxygen saturation. The procedure: (§6) As controls, BOD on which coating was not performed and which was stored at 25° C. for the same period of time as that is necessary for the process of preparing coated BOD 4 (hereinafter referred to as “free BOD 2”), and BOD on which coating was not performed and which was stored at 4° C. for the same period of time as that is necessary for the process of preparing coated BOD 4 (hereinafter referred to as “free BOD 3”) were used.
as §5

Test [7] deals with bilirubin oxidase (BOD), free BOD 3 (not coated, stored at 4° C.). Conditions: pH 7.0, 25° C., oxygen saturation. The procedure:
as §6, §5

From patent publication US20090053582A1, “METHOD OF COATING BILIRUBIN OXIDASE” (SONY CORPORATION, priority 2007, published 2009) come the findings set out here.

On to `CCn1c(=NN=c2sc3cc(S(=O)(=O)O)ccc3n2CC)sc2cc(S(=O)(=O)O)ccc21.N.N` [ABTS, 2,2′-Azino-bis(3-ethylbenzothiazoline-6-sulfonic acid) diammonium salt], for which the “kcat/KM,ABTS” value in test [1] (coated BOD 1, pH 7.0, 25° C., oxygen saturation) was 0.27 M^−1s^−1 × 10^5; in test [2] (coated BOD 2, pH 7.0, 25° C., oxygen saturation) it was 0.048 M^−1s^−1 × 10^5; in test [3], 7.6 M^−1s^−1 × 10^5; in test [4] (coated BOD 3, pH 7.0, 25° C., oxygen saturation), 0.92 M^−1s^−1 × 10^5; in test [5] (coated BOD 4, pH 7.0, 25° C., oxygen saturation), 0.79 M^−1s^−1 × 10^5; in test [6] (free BOD 2, pH 7.0, 25° C.), 4.7 M^−1s^−1 × 10^5. Moreover, the “kcat/KM,ABTS” value in test [7] is given as 6.0 M^−1s^−1 × 10^5. For the same molecule, the “reaction rate constant (kcat) relative to free BOD 1” value in test [1] (coated BOD 1 vs free BOD 1) is given as “about 1/23”; in test [2] (coated BOD 2 vs free BOD 1), “about 1/122”. The “reaction rate constant (kcat) relative to free BOD 2” value in test [4] (coated BOD 3 vs free BOD 2) and in test [5] (coated BOD 4 vs free BOD 2) was “about ⅓” in each case. Also, the “reaction rate constant (kcat) relative to free BOD 3” value in test [4] (coated BOD 3 vs free BOD 3) and in test [5] (coated BOD 4 vs free BOD 3) was “about ¼” throughout. The Km in test [6] (read-out: KM,ABTS, free BOD 2, 0.603 nM, ABTS 0.05 to 7 mM, pH 7.0 sodium phosphate, 25° C., 730 nm) was found to be 337 µM.

A word on the Km: it is the substrate concentration at which the rate is half of its maximum.
